Reference: publication PMC9888386 (The Journal of Clinical Investigation, 2023)

Target: T1, KEAP1 (microscale thermophoresis assay) (UniProt Q14145 1-624)
T1 construct: KEAP1 as used in the microscale thermophoresis assay; May be the same as GST-KEAP1-WT
Assay: MST; microscale thermophoresis; conditions in the Supplemental Methods, not shown

- Kd: 7.97 µM
B1: purified FAM117B protein (natural protein, UniProt Q6P1L5 1-589, looked up)
chain: MSQRVRRNGSPTPAGSLGGGAVATAGGPGSRLQPMRATVPFQLKQQQQQQHGSPTRSGGGGGGNNNGGCCGGASGPAGGGGGGGPRTASRSTSPTRGGGNAAARTSPTVATQTGASATSTRGTSPTRSAAPGARGSPPRPPPPPPLLGTVSSPSSSPTHLWTGEVSAAPPPARVRHRRRSPEQSRSSPEKRSPSAPVCKAGDKTRQPSSSPSSIIRRTSSLDTLAAPYLAGHWPRDSHGQAAPCMRDKATQTESAWAEEYSEKKKGSHKRSASWGSTDQLKEIAKLRQQLQRSKHSSRHHRDKERQSPFHGNHAAINQCQAPVPKSALIPVIPITKSTGSRFRNSVEGLNQEIEIIIKETGEKEEQLIPQDIPDGHRAPPPLVQRSSSTRSIDTQTPGGADRGSNNSSRSQSVSPTSFLTISNEGSEESPCSADDLLVDPRDKENGNNSPLPKYATSPKPNNSYMFKREPPEGCERVKVFEECSPKQLHEIPAFYCPDKNKVNFIPKSGSAFCLVSILKPLLPTPDLTLKGSGHSLTVTTGMTTTLLQPIAVASLSTNTEQDRVSRGTSTVMPSASLLPPPEPIEEAEG
notes: FAM117B; Used for the GST pull-down; source: purified
